Measurements published in paper PMC2732992 (Proteins, 2009).

Protein sequences, listed by entry. Tags and fused reporters are not part of them. Lines headed by an entry give the natural chain unless they say otherwise; changes in a name come on top.
UniProt P19492: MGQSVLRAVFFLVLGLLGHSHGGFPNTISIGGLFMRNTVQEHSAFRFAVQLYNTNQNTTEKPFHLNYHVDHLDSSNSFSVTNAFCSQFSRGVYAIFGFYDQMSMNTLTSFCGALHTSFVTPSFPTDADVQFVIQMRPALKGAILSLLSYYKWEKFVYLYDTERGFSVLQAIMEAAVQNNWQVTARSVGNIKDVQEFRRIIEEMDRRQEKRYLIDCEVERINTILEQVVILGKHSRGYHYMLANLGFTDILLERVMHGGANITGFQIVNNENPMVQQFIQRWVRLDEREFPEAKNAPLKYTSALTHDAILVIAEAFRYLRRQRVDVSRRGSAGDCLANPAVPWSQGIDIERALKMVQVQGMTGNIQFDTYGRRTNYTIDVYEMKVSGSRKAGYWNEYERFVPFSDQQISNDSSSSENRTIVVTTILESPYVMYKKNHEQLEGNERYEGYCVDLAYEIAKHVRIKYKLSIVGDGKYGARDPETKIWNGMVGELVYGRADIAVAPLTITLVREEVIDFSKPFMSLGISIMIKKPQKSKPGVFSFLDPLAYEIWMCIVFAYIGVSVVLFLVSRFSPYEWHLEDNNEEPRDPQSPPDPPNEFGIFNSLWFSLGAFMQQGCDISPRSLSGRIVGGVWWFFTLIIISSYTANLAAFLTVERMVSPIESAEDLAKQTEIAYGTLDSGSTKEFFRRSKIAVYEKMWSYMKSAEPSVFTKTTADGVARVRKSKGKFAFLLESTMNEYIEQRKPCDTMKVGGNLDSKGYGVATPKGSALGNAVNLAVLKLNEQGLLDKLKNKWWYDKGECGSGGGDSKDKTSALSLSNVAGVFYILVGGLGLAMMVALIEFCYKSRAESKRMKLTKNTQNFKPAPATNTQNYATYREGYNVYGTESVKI

Molecular target: GluR3i S1S2 domain (Rattus norvegicus, UniProt P19492, DEL531-655/S657T/V656G)
Assay: biochemical

## Cc1onc(O)c1CC(N)C(=O)O (stereo not drawn) [[^3H]AMPA, α-amino-3-hydroxy-5-methyl-4-isoxazole-propionic acid]
  Kd: 0.043 ± 0.005 µM
